Assay [1] concerns the target Hdm2 protein (amino acids 2-185) (Homo sapiens, UniProt Q00987). The assay is described as follows: Fluorescence polarisation assay, inhibition of p53-Hdm2 interaction. As to conditions: read-out: IC50 (μM) of p53-Hdm2 inhibition Fluorescence polarisation assay; Hdm2 3 nM, Cy5-labelled p53-derived peptide 1 nM. The method, then: Fluorescence Polarisation Assay
The inhibition of p53-Hdm2 interaction is measured by fluorescence polarization. Fluorescence polarization measures the rotational movement of molecules in a homogeneous suspension. For this assay, Hdm2 protein (amino acids 2-185) is combined with a Cy5-labelled p53-derived peptide optimised for Hdm2 binding (J. Med. Chem. 2000, 43, 3205-3208). Upon excitation of the Cy5 fluorescent ligand with linearly polarized light, the peptide rotates faster and emits light which is perpendicularly polarized. If the peptide is bound by Hdm2, rotation will slow down and the perpendicular component will decrease. […] The ratiometric polarization assay readout is calculated from the parallel and perpendicular components of the fluorescence light with respect to the polarization of the excitation light.
The test is performed by combining 7 μl compounds diluted in dimethyl sulfoxide (DMSO) (10% final concentration) with 31.5 μl […] (final concentration 3 nM) in reaction buffer (PBS, 0.1% CHAPS, 1 mM DTT (dithiothreitol)). […] For measurement of samples, an Analyst AD multimode microplate reader (Molecular Devices Corporation, Sunnyvale, Calif., USA) with the following settings is used: Dichroic mirror 650 nm, Excitation 630 nm, Emission 695 nm. […] IC50 values are calculated by curve fitting using XLfit. […]
A general note: Polarisation of emitted light reports the rotation of a fluorescent probe.

Chains of the proteins cited; added tags and fusions are not shown. Residues count along the entry.
UniProt Q00987, 2-185 limits assumed: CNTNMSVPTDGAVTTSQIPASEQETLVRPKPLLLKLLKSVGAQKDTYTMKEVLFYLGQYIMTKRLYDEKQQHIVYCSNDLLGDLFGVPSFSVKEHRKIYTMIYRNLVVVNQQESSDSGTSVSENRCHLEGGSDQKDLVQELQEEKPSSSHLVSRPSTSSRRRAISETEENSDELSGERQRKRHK
UniProt O15151, 2-185 limits assumed: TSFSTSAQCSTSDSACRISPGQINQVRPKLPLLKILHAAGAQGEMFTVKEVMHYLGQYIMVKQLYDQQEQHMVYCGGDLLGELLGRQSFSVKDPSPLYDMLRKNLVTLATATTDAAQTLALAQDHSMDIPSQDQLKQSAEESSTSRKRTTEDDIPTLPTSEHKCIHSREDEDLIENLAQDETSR

In assay [2] the target is MDM4 protein (amino acids 2-185) (Homo sapiens, UniProt O15151). The assay is described as follows: Time resolved fluorescence energy transfer (TR-FRET) assay, inhibition of p53-Hdm4 interaction. Format: binding. To be noted: read-out: IC50 (μM) of p53-Hdm4 inhibition (TR-FRET) Assay; MDM4-Bio 10 nM, Cy5-p53 peptide 20 nM. The method, then: Time Resolved Fluorescence Energy Transfer (TR-FRET) Assay
The inhibition of p53-Hdm4 interaction is measured by time resolved fluorescence energy transfer (TR-FRET). Fluorescence energy transfer (or Foerster resonance energy transfer) describes an energy transfer between donor and acceptor fluorescent molecules. For this assay, MDM4 protein (amino acids 2-185), tagged with a C-terminal Biotin moiety, is used in combination with a Europium labeled streptavidin (Perkin Elmer, Inc., Waltham, Mass., USA) serving as the donor fluorophore. The p53 derived, Cy5 labeled peptide Cy5-TFSDLWKLL (p53 aa18-26) is the energy acceptor. Upon excitation of the donor molecule at 340 nm, binding interaction between MDM4 and the p53 peptide induces energy transfer and enhanced response at the acceptor emission wavelength at 665 nm. Disruption of the formation of the p53-MDM4 complex due to an inhibitor molecule binding to the p53 binding site of MDM4 results in increased donor emission at 615 nm. The ratiometric FRET assay readout is calculated from the raw data of the two distinct fluorescence signals measured in time resolved mode (countrate 665 nm/countrate 615 nm×1000). […]
On the technique in general: TR-FRET usually uses a lanthanide donor and a delayed reading to cut background.

One may read the IC50 as the concentration that gives 50% inhibition.

Turning to `CN1CCN(CCNC(=O)c2[nH]c3cc(Cl)ccc3c2-c2c(-c3ccccc3)ncn2Cc2ccc(Cl)cc2)CC1`, the results for the IC50 in assay [1] and in assay [2] were 0.3 µM and 10.4 µM, respectively.

The record behind these values is patent US8053457B2, “3-imidazolyl-indoles for the treatment of proliferative diseases” (Novartis AG, priority 2007, dated 2011).
